Outcome data for 116 compounds are collected here from PubChem BioAssay AID588511 (Johns Hopkins Ion Channel Center, 2011).

The chains behind the UniProt entries cited, without tags or fusion partners.
UniProt Q8BHY3, whole entry: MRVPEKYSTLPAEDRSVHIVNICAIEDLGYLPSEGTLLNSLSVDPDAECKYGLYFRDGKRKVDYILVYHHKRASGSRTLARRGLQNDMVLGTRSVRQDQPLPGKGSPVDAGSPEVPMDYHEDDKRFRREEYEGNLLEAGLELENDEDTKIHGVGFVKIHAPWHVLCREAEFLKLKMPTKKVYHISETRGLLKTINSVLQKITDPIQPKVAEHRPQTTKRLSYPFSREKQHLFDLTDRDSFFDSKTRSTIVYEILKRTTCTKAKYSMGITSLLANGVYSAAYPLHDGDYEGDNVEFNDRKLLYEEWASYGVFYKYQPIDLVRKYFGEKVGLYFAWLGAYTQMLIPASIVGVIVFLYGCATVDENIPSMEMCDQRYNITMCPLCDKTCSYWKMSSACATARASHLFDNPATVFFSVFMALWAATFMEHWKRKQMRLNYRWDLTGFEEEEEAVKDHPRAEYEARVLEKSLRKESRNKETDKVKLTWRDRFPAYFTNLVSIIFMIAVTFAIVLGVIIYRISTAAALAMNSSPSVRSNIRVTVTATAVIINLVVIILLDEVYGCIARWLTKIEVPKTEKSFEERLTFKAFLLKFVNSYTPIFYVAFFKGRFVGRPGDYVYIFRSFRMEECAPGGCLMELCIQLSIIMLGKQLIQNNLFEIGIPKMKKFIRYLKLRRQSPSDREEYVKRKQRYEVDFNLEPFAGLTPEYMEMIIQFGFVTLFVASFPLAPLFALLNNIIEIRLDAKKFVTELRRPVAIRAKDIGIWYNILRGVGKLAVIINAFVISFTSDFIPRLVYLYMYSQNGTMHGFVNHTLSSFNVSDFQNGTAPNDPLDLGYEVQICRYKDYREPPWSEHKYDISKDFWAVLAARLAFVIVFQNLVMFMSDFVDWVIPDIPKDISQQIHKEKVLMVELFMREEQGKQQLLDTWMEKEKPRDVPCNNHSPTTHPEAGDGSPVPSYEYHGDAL

Only a part is listed here, and it is no random draw. Some salts and complexes are drawn in separate pieces, as the source files them; their charges need not balance. Active and inactive are the calls of the source.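 The calls were made as follows: active = ratio plate-corrected score three or more library SD toward inhibition, starting fluorescence score within five deviations; inactive = the rest.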

This test deals with Anoctamin-1 (Mus musculus) (UniProt Q8BHY3). Kind of test: TMEM16A chloride channel inhibitors, primary screen, cell-based, HTS (AID 588511). The settings on record: HEK293 TMEM16A/YFP iodide influx fluorescence, ionomycin; at 10 µM.
As to `CC(=O)c1ccc(N2CC2c2ccncc2)cc1` (stereo unspecified), the result was inactive.

Take `O=C(OC1CN2CCC1CC2)c1ccc([N+](=O)[O-])cc1` (stereo unspecified): the compound was called inactive.

For `O=C(OCCN1CCN(CCOCc2ccccc2)CC1)C(O)(c1ccccc1)c1ccccc1`, the compound was classed as inactive.

As for `C[C@@H]1C=CCP(=O)(Oc2ccccc2)O1` (stereo partly specified), the result was inactive.

Regarding `C[C@H]1OP(=O)(Oc2ccccc2)C[C@@H]2O[C@@H]21` (stereo partly specified), the compound was classed as inactive.

As to `COc1ccc2c(c1O)-c1c(O)c(OC)cc3c1[C@H](C2)[N+](C)(C)CC3.O=[N+]([O-])c1cc([N+](=O)[O-])c([O-])c([N+](=O)[O-])c1[O-]`, the call was inactive.

For the compound `CC(=O)Nc1ccc([As](=O)(O)O)c(O)c1`, the compound was classed as inactive.

On to `CC(=O)Nc1ccc(Oc2c([N+](=O)[O-])cc([N+](=O)[O-])cc2[N+](=O)[O-])cc1`, for which the result was inactive.

`O=P1(Nc2nc3ccc(Cl)cc3s2)COc2ccccc2O1` (stereo unspecified): the compound was classed as inactive.

`CCOc1ccc(C2=NCC(CBr)S2)cc1` (stereo unspecified): the result was inactive.

On to `CP(=O)(Nc1ccccc1F)Oc1ccccc1` (stereo unspecified), for which the call was inactive.

Turning to `CC(C)(C)C(=O)NC(Sc1ccccc1)C(Cl)(Cl)Cl` (stereo unspecified), the compound was called inactive.

On to `CC(C)c1ccc(OP(C)(=O)Nc2ccc(SC(F)(F)F)cc2)cc1` (stereo unspecified), for which the outcome was inactive.

In the case of `COC(=O)c1cc2c(s1)N=C(c1ccccc1)N(C)P2(=O)N1CCOCC1` (stereo unspecified), the result was inactive.

Consider `CC(=O)NC(SC(=S)N(CC(C)C)CC(C)C)C(Cl)(Cl)Cl` (stereo unspecified), for which the outcome was inactive.

As for `Cc1ccc(OP(=O)(Nc2ccccn2)Oc2ccc(C)cc2)cc1`, the compound was called inactive.

Take `O=C(OC1CN2CCC1CC2)c1ccccc1` (stereo unspecified): the result was inactive.

On to `CCN(CC)CCCOC(=O)C(O)(c1ccccc1)C1CCCCC1` (stereo unspecified), for which the call was inactive.

Turning to `CCC(=O)N1C2C3N(C(=O)CC)C1C1N(C(=O)CC)C(C(N1C(=O)CC)N3C(=O)CC)N2C(=O)CC`, the outcome was inactive.

For the compound `CP(=O)(Nc1ccccc1)Oc1ccc(F)cc1` (stereo unspecified), the compound was classed as inactive.

With `Cc1ccccc1OP(=O)(Nc1ccccn1)Oc1ccccc1C`, the compound was called inactive.

For the compound `CN(C)C(=O)Oc1noc2ccccc12`, the call was inactive.

For `CCCCCOc1ccc(NP(C)(=O)Oc2ccc(Cl)cc2Cl)cc1` (stereo unspecified), the call was inactive.

`O=[N+]([O-])c1cc([N+](=O)[O-])c(OC2CCCCC2O)c([N+](=O)[O-])c1` (stereo unspecified): the call was inactive.

As for `CCNC(=S)/N=C(\N)N[N+](=O)[O-]`, the result was inactive.

As to `O=C(NC1CCS(=O)(=O)C1)NP(=S)(Oc1ccccc1)Oc1ccccc1` (stereo unspecified), the result was inactive.

For `c1ccc(-c2nn[nH]n2)c(-c2nn[nH]n2)c1`, the result was inactive.

For the compound `Cc1ccc(NP(=O)(Oc2cccc(C)c2)Oc2cccc(C)c2)nc1`, the result was inactive.

`CCOC(=O)NC(Sc1ccccc1)C(Cl)(Cl)Cl` (stereo unspecified): the call was inactive.

As to `CCOC(=O)c1ccc(NP(C)(=O)Oc2ccc(F)cc2)cc1` (stereo unspecified), the result was inactive.

As for `COc1ccc(OP(C)(=O)Nc2ccc(SC(F)(F)F)cc2)cc1` (stereo unspecified), the result was inactive.

Regarding `CC(=O)NC(SC(=S)N(C)C)C(Cl)(Cl)Cl` (stereo unspecified), the compound was classed as inactive.

For the compound `O=[N+]([O-])c1ccc(OP2(=O)COCCO2)cc1` (stereo unspecified), the result was inactive.

As for `O=[N+]([O-])c1ncn(CCn2cnc([N+](=O)[O-])n2)n1`, the compound was called inactive.

For `O=[As](O)(c1ccccc1)c1ccc(O)cc1`, the compound was classed as inactive.

With `O=[N+]([O-])c1cc([N+](=O)[O-])c(NCC2CCS(=O)(=O)C2)c([N+](=O)[O-])c1` (stereo unspecified), the compound was called inactive.

Regarding `Nc1ccc([As](=O)(O)c2ccc([N+](=O)[O-])cc2)cc1`, the compound was classed as inactive.

For the compound `C(Cc1nn[nH]n1)Cc1nn[nH]n1`, the call was inactive.

As for `O=C(OC1CN2CCC1CC2)c1cccc(Cl)c1` (stereo unspecified), the outcome was inactive.

For `COc1ccc(OP(C)(=O)Nc2cccc(Br)c2)cc1` (stereo unspecified), the outcome was inactive.

In the case of `O=P(Nc1ccccn1)(c1ccc(Br)cc1)c1ccc(Br)cc1`, the outcome was inactive.

Consider `CN(C)C1(CNC(=O)c2ccc(Cl)c(S(N)(=O)=O)c2)CCCCC1`, for which the compound was called inactive.

Take `CN(C)CCOC(=O)C(O)(c1ccccc1)C1CCCCC1` (stereo unspecified): the outcome was inactive.

As for `O=P(Nc1nc2ccccc2s1)(c1ccccc1)c1ccccc1`, the call was inactive.

For `C[C@H]1OP(=O)(Oc2ccccc2)[C@H](O)[C@H](O)[C@H]1N=[N+]=[N-]` (stereo partly specified), the compound was classed as inactive.

For the compound `COc1ccc(NP(C)(=O)Oc2ccccc2OC)cc1` (stereo unspecified), the compound was classed as inactive.

In the case of `CP(=O)(Nc1ccc2c(c1)OCCO2)Oc1ccccc1` (stereo unspecified), the compound was classed as inactive.

Regarding `Cc1ccccc1NP(C)(=O)Nc1ccccc1C`, the compound was called inactive.

Regarding `CP(=O)(Nc1ccc(SC(F)(F)F)cc1)Oc1ccc(F)cc1` (stereo unspecified), the compound was called inactive.

Take `CC(C)C(=O)NC(Sc1ccccc1)C(Cl)(Cl)Cl` (stereo unspecified): the compound was called inactive.

In the case of `O=P(Nc1nccs1)(c1ccccc1)c1ccccc1`, the result was inactive.

Take `CCOP(C)(=S)SCC(=O)NC(C)(CC)C(=O)O` (stereo unspecified): the outcome was inactive.

With `c1nnnn1CCn1cnnn1`, the compound was called inactive.

For the compound `CC(C)(C)c1ccc(OP(C)(=O)O)cc1`, the compound was classed as inactive.

Turning to `Nc1ccc([As](=O)(O)c2ccc(N)cc2)cc1`, the call was inactive.

On to `COc1ccccc1OP(C)(=O)Nc1ccccc1Br` (stereo unspecified), for which the call was inactive.

For the compound `C[N+]1=C2C=CC=CC=C2SC12C([N+](=O)[O-])=CC([N+](=O)[O-])=C[C-]2[N+](=O)[O-]` (stereo unspecified), the call was inactive.

In the case of `CCN(/C(=N/P(=O)(N1CCOCC1)N1CCOCC1)N1CCOCC1)c1ccc(OC)cc1`, the outcome was inactive.

For the compound `CP(=O)(Nc1ccc(Cl)cc1)Oc1ccc(F)cc1` (stereo unspecified), the call was inactive.

On to `CN(C)C(=O)c1c([N+](=O)[O-])cc([N+](=O)[O-])cc1[N+](=O)[O-]`, for which the call was inactive.

As for `CC(C)=N/N=C(\N)N[N+](=O)[O-]`, the compound was called inactive.

With `CN(C)C(=O)OCCc1n(C)cc[n+]1C`, the compound was classed as inactive.

Consider `CC1CCN(C(=O)Oc2c(Cl)cc(Cl)c3cccnc23)CC1`, for which the result was inactive.

With `CCN(CC)CC(O)COC(=O)C(O)(c1ccccc1)C1CCCCC1` (stereo unspecified), the compound was classed as inactive.

Turning to `COc1ccc(OP(C)(=O)Nc2ccc(Br)cc2)cc1` (stereo unspecified), the compound was called inactive.

`COc1ccc(C2=NCC(CBr)S2)cc1` (stereo unspecified): the compound was classed as inactive.

For the compound `COc1ccccc1OP(C)(=O)Nc1c(C)n(C)n(-c2ccccc2)c1=O` (stereo unspecified), the result was inactive.

Turning to `O=[N+]([O-])c1cccc2n[nH]nc12`, the call was inactive.

Turning to `CC(=O)N1C2C3N(C(C)=O)C1C1N(C(C)=O)C(C(N1C(C)=O)N3C(C)=O)N2C(C)=O`, the compound was classed as inactive.

Turning to `O=C(OCCCN1CCCC1)C(O)(c1ccccc1)C1CCCCC1` (stereo unspecified), the outcome was inactive.

In the case of `CP(=O)(Oc1ccccc1)N1CCOC1=O` (stereo unspecified), the call was inactive.

As to `Cc1ccc(NP(=O)(Oc2ccccc2)Oc2ccccc2)nc1`, the result was inactive.

Regarding `O=[N+]([O-])c1cc([N+](=O)[O-])c(CCNc2ccccc2)c([N+](=O)[O-])c1`, the result was inactive.

Regarding `CCc1ccc(OP(C)(=O)Nc2cccnc2)cc1` (stereo unspecified), the compound was called inactive.

Consider `CC(C)(C)C(=O)NC(Sc1ccncn1)C(Cl)(Cl)Cl` (stereo unspecified), for which the call was inactive.

Consider `O=[N+]([O-])c1ncn(CCn2ncnc2[N+](=O)[O-])n1`, for which the compound was classed as inactive.

With `O=[N+]([O-])c1cccc(NC2=NCC(CBr)S2)c1` (stereo unspecified), the call was inactive.

On to `O=C(O)CNc1ccc([As](=O)(O)O)cc1`, for which the compound was classed as inactive.

Turning to `Nc1ccc2c(ccc3cccnc32)n1.O=[N+]([O-])c1cc([N+](=O)[O-])c(O)c([N+](=O)[O-])c1`, the outcome was inactive.

For the compound `CCOC(=O)c1ccc(NP(C)(=O)Oc2ccc(Cl)cc2)cc1` (stereo unspecified), the result was inactive.

Turning to `O=C(Nc1cc([As](=O)(O)O)ccc1O)c1ccccc1`, the compound was classed as inactive.

For the compound `CP(=O)(OC12CC3CC(CC(C3)C1)C2)OC12CC3CC(CC(C3)C1)C2`, the result was inactive.

For `Cc1nc2ccc3ccccc3c2o1.O=[N+]([O-])c1cc([N+](=O)[O-])c(O)c([N+](=O)[O-])c1`, the call was inactive.

Turning to `O=[N+]([O-])c1cc([N+](=O)[O-])c(CCN2CCOCC2)c([N+](=O)[O-])c1`, the result was inactive.

With `CCN(N=Nc1nonc1N)c1nonc1N`, the result was inactive.

Take `Nc1cccc2ccc([As](=O)(O)O)cc12`: the call was inactive.

For the compound `CP(=O)(OCCOc1ccccc1)OCCOc1ccccc1`, the compound was called inactive.

On to `CP(=O)(Nc1ccc(Cl)cc1Cl)Oc1ccccc1` (stereo unspecified), for which the compound was called inactive.

With `O=C(O)c1ccccc1[As](=O)(O)O`, the outcome was inactive.

As for `CC(=O)Nc1ccc([As](=O)(O)O)cc1`, the result was inactive.

As to `Cc1cc(C)cc(OP(C)(=O)Nc2cccc(C(F)(F)F)c2)c1` (stereo unspecified), the compound was called inactive.

For `O=P(Nc1nc2ccc(Cl)cc2s1)(c1ccccc1)c1ccccc1`, the compound was called inactive.

With `CCOP(=O)(Nc1ccccc1)OCC`, the outcome was inactive.

For the compound `Cc1cc(SC(NC(=O)c2ccc(F)cc2)C(Cl)(Cl)Cl)ncn1` (stereo unspecified), the compound was classed as inactive.

`Cc1ccc(NP(=O)(Oc2ccccc2F)Oc2ccccc2F)nc1`: the compound was classed as inactive.

With `CN(C(=O)Cc1ccc(Cl)c(Cl)c1)[C@H]1CCCC[C@@H]1N1CCCC1`, the call was inactive.

`COc1ccccc1OP(C)(=O)Nc1ccc(C)c(C)c1` (stereo unspecified): the result was inactive.

For the compound `COc1ccc(OP(C)(=O)Nc2ccccc2Br)cc1` (stereo unspecified), the compound was called inactive.

As to `CC(C)CC(=O)NC(Sc1ccc(Cl)cc1)C(Cl)(Cl)Cl` (stereo unspecified), the call was inactive.

Regarding `O=[N+]([O-])c1cc([N+](=O)[O-])c(Nc2ccccn2)c([N+](=O)[O-])c1`, the compound was called inactive.

With `Cc1c(NP(C)(=O)Oc2ccc(C(C)C)cc2)c(=O)n(-c2ccccc2)n1C` (stereo unspecified), the call was inactive.

With `Nc1cc(N)c2nonc2c1[N+](=O)[O-]`, the compound was called inactive.

For `Oc1ccccc1CNc1ccccn1`, the outcome was inactive.

As for `Cc1c2non([O-])c-2c(C)[n+](=O)[n+]1[O-]`, the outcome was inactive.

As to `O=C(NC(Sc1ccncn1)C(Cl)(Cl)Cl)c1ccccc1` (stereo unspecified), the result was inactive.

`CP(=O)(Nc1ccccn1)Oc1ccccc1` (stereo unspecified): the compound was called inactive.

On to `COc1ccccc1OP(C)(=O)Nc1ccc(C)cc1C` (stereo unspecified), for which the compound was called inactive.

As to `CCc1ccc(OP(C)(=O)O)cc1`, the result was inactive.

Consider `NC(=O)c1cc([N+](=O)[O-])cc([N+](=O)[O-])c1N`, for which the call was inactive.

As to `COc1ccccc1OP(C)(=O)Nc1ccc(Br)cc1` (stereo unspecified), the compound was called inactive.

`CN(C(=O)Cc1ccc(Cl)c(Cl)c1)[C@H]1CCCC[C@H]1N1CCCC1`: the outcome was inactive.

In the case of `Cc1ccc(N/C(=N/P(=O)(N2CCOCC2)N2CCOCC2)N2CCOCC2)cc1`, the result was inactive.

Turning to `COc1ccc(OP(C)(=O)Nc2ccccn2)cc1` (stereo unspecified), the call was inactive.

As to `COc1ccccc1OP(=O)(Nc1ccc(C)cn1)Oc1ccccc1OC`, the outcome was inactive.

On to `Cc1ccc(OP(=O)(Nc2nccs2)Oc2ccc(C)cc2)cc1`, for which the compound was called inactive.

On to `Clc1ccc(Cl)c(NC2=NCC(CBr)S2)c1` (stereo unspecified), for which the call was inactive.
